One substance from patent US9334257B2, “Methods of purifying and identifying the presence of and levels of procyanidin oligomeric compounds” (The Hershey Company, priority 2012, dated 2016) can be followed below.

This series is described as follows: Partition coefficient of cocoa procyanidin oligomers in the CPC biphasic solvent system. It counts as physicochemical. To be noted: typical CPC runs as described; biphasic ethyl acetate:ethanol:water (6:1:5), ascending mode; unfermented cocoa bean sample of 8.5 grams. On the procedure: A sample is mixed with water and prepared for FCPC with a KROMATON device and rotor. Columns are prepared with biphasic solvent mixture of ethyl acetate:ethanol:water at 6:1:5 ratio. The solvent used can be modified from this ratio by calculating the partition coefficients and comparing to that of the ethyl acetate:ethanol:water example. The FCPC is run in ascending mode for purifying procyanidins, so that the mobile phase is the upper phase in the resting columns.
These quantities are isolated from an unfermented cocoa bean sample of 8.5 grams. In comparison, with a diol HPLC column, 150×30 mm, injecting about 270 mg of the same sample per run yields only about 25 mg of DP2-4 and less than 1 mg of DP11-12. Clearly, the CPC methods of the invention provide commercially viable methods for producing usable quantities of a range of procyanidin oligomers, especially from cocoa sources.

Turning to catechin, the Partition coefficient is given as 1.06.
